This note sets out measurements from publication PMC4256349, “A Conformational Sampling Model for Radical Catalysis in Pyridoxal Phosphate- and Cobalamin-dependent Enzymes” (The Journal of Biological Chemistry, 2014).

For the series, the system named is NCCC[C@@H](N)C(=O)O. The experiment in a line: purified protein. The note with it: anaerobic, 100 mM NH4-EPPS pH 8.5, 25 °C, PLP and AdoCbl holoenzyme, unit row missing in table text, units follow from printed kcat/Km.

For the substance “ornithine 4,5-aminomutase (OAM) (Acetoanaerobium sticklandii DSM 519; G336W)”, the Km stood at 190 ± 6 µM, the kcat was 0.20 ± 0.05 s⁻¹ and the kcat/Km was 1050 M⁻¹ s⁻¹.

Consider “ornithine 4,5-aminomutase (OAM) (Acetoanaerobium sticklandii DSM 519; E335A)”, for which the Km turned out to be 176 ± 8 µM, the kcat is 0.24 ± 0.03 s⁻¹ and the kcat/Km is 1340 M⁻¹ s⁻¹.

As for “ornithine 4,5-aminomutase (OAM) (Acetoanaerobium sticklandii DSM 519; C697S)”, under “not spin-labelled”, the Km was 186 ± 11 µM, the turnover number (kcat) amounted to 2.88 ± 0.03 s⁻¹ and the kcat/Km was 15500 M⁻¹ s⁻¹.

Regarding “ornithine 4,5-aminomutase (OAM) (Acetoanaerobium sticklandii DSM 519; P340W)”, the Km is 193 ± 5 µM, the kcat came to 0.14 ± 0.02 s⁻¹ and the specificity constant (kcat/Km) is 730 M⁻¹ s⁻¹.

With “ornithine 4,5-aminomutase (OAM) (Acetoanaerobium sticklandii DSM 519; D624A)”, the Km amounted to 193 ± 14 µM, the kcat is 2.89 ± 0.01 s⁻¹ and the kcat/Km is 15000 M⁻¹ s⁻¹.

Regarding “ornithine 4,5-aminomutase (OAM) (Acetoanaerobium sticklandii DSM 519; I421E)”, the Michaelis constant (Km) came to 185 ± 5 µM, the kcat is 0.76 ± 0.04 s⁻¹ and the specificity constant (kcat/Km) was found to be 4120 M⁻¹ s⁻¹.

As a reminder, the Km is the concentration of substrate that gives half-maximal velocity. The kcat is the maximal rate divided by the concentration of active sites. As usually defined, the kcat/Km is the second-order rate constant that governs catalysis at low substrate concentration.
